# Earlier results in US8440813B2, “Antiviral nucleoside analogs” (BioCryst Pharmaceuticals, Inc., priority 2007, dated 2013).
# System: HCV
# Conditions: human, in vivo; cited from earlier work
compound,measurement,value
"NC(=O)c1ncn([C@@H]2O[C@H](CO)[C@@H](O)[C@H]2O)n1 [Ribavirin, 1-β-D-ribofuranosyl-1-1,2,4-triazole-3-carboxamide]",toxicity,significant toxicity
